Columns and labels:
[1] = test system: mouse transplanted liver tumor; assay: Anti-tumor effect on mouse transplanted liver tumor (I.M.); assay type: in vivo; settings: CTX 18.0 mg/kg/d x10; outset 19.9, 20.3, 20.9 in three experiments; in g (unit assumed)
Excerpt: (§1) A solvent blank (i.e., the specifically designed solution illustrated in Table 1), a saline blank as a […] control are used as controls for the in vivo tests. As per the Drug Administration Law of the People's Republic of China, and the rules governing observation of the pharmaco-dynamic study of the therapy action, the tumors were surgically removed from tumor infected mice and were homogenized to form suspensions followed by filtration to make a suspension solution at 1×10^6 -10^7 cell/ml. The suspension was injected (i.e., 0.2 ml per mice) into the test mice for tumor growth until the transplanted tumor cells were established and grew up to a size of 0.5×0.5 cm. The inhibition of mouse transplanted liver tumor and Sarcoma S.180 are evaluated by a series of doses of Inmunsyn E as illustrated in Tables 5 and 6 below for 10 days. The Immunsyn E was administered to mice through muscle injection. […] At the end of the in vivo tests, several parameters such as mouse body weight, average tumor weight and percentage of tumor inhibition, are determined.
(§2) % inhibition rate=(average tumor weight of the solvent group or
(§3) (N.S.)-average tumor weight of the Immunsyn E treated group)/ average
(§4) tumor rate of the solvent group

mouse S-180 sarcoma = assay: Anti-tumor effect on mouse transplanted sarcoma S-180 (I.M.); assay type: in vivo; settings: CTX 18.0 mg/kg/d x10; outset 22.4, 22.6, 19.3 in three experiments; in g (unit assumed)
Excerpt: as §1, §2, §3, §4

`O=P1(N(CCCl)CCCl)NCCCO1` (centres unmarked) [CTX] was tested, and the Body weight final [1] was 27.8 and the “Body weight final” value (mouse S-180 sarcoma) was 29.1.

— patent publication US5891454A, “Anti-cancer drug and special tumor necrotizing agent” (Wu; Alexander, priority 1997, dated 1999)
